This is a selection: effects in other tests are not listed, and their absence says nothing.
What was measured:
[1] = tested on: ryegrass white clover pasture; assay: Field study, pasture colour and legume damage; conditions: 250 L/ha; assessed 4.5 hrs, 48 hours and 4 days after application; FIG. 2
[2] = pH of petri-dish test solutions after mixing and after 24 hours; format: physicochemical

Which results are given for ammonium nitrate?
impact on pasture colour and legume damage [1]: greater impact on pasture colour and legume leaf health than calcium hydroxide; pH 24 ([2]; solution after 24 hours): 5.7; pH 0 ([2]; solution immediately after mixing (0 hours)): 5.9
